{
  "sequences": {"note": "Sequences of proteins named here, by UniProt entry; tags and fusion partners are left off.", "UniProt Q07820, whole entry": "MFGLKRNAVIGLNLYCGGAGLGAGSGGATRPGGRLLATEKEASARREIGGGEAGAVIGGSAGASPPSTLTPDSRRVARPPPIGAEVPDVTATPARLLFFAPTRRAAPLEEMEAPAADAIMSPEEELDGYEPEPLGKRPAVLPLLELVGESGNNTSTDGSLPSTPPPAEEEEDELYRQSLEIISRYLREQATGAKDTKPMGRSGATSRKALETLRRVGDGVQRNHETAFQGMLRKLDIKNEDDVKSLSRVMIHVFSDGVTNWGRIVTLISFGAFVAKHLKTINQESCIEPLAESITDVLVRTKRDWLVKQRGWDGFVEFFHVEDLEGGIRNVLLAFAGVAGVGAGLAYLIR"},
  "source": "ChEMBL document CHEMBL4477185",
  "about": "“Anacardic Acids from Knema hookeriana as Modulators of Bcl-xL/Bak and Mcl-1/Bid Interactions” (J Nat Prod, 2016)",
  "target": "Induced myeloid leukemia cell differentiation protein Mcl-1/BH3-interacting domain death agonist (Homo sapiens, UniProt Q07820)",
  "assay": "Inhibition of His-tagged Mcl-1/5-carboxyfluorescein-Bid (unknown origin) after 1 hr by fluorescence polarization assay",
  "format": "protein assay",
  "procedure,_shortened": "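Fluorescence polarization competition: a small molecule competes with a fluorescent-tagged BH3 peptide (Bak for Bcl-xL, Bid for Mcl-1) for binding to the anti-apoptotic protein. Run in triplicate.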",
  "data": [
    {"smiles": "CN(C)CC[C@H](CSc1ccccc1)Nc1ccc(S(=O)(=O)NC(=O)c2ccc(N3CCN(Cc4ccccc4-c4ccc(Cl)cc4)CC3)cc2)cc1[N+](=O)[O-]", "note": "[ABT 737]", "values": [
      {"measurement": "IC50", "value": "> 33", "unit": "µM"}
    ]}
  ]
}
